Laboratory results reported in publication PMC6199744, “Development of Chemical Proteomics for the Folateome and Analysis of the Kinetoplastid Folateome” (ACS Infectious Diseases, 2018).

By UniProt entry, the sequences of proteins in these tests, tags left out. Where a name states a change or a piece, a line headed by the entry shows the natural chain unless it says otherwise.
UniProt P07382: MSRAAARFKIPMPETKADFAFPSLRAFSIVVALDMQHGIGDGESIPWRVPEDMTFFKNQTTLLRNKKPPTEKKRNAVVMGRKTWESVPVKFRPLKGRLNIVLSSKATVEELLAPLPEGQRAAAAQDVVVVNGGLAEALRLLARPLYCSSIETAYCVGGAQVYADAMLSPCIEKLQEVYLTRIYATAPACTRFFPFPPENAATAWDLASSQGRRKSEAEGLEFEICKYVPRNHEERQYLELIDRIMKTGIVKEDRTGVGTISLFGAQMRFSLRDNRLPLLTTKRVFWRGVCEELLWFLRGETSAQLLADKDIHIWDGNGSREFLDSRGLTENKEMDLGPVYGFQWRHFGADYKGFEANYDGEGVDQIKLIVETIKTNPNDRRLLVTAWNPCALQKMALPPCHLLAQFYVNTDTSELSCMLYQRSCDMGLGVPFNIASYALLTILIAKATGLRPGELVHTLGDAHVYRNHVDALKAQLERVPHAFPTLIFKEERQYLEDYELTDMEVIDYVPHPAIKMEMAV

Tests used:
DHFR-TS [1] = molecular target: T1, DHFR-TS (Leishmania major, UniProt P07382); assay: biochemical; conditions: read-out: % Inhibition of protein binding to bead, DHFR-TS, L. major
DHFR-TS [2] = molecular target: T1, DHFR-TS; assay type: binding; conditions: bead mixture; L. major lysate
PTR1 [3] = molecular target: T2, PTR1 (Leishmania major, UniProt Q01782); assay type: binding; parameters: endogenous in cells; host or cells: L. major Friedlin promastigote lysate; conditions: bead mixture; L. major lysate
T2 sequence (Q01782 1-288): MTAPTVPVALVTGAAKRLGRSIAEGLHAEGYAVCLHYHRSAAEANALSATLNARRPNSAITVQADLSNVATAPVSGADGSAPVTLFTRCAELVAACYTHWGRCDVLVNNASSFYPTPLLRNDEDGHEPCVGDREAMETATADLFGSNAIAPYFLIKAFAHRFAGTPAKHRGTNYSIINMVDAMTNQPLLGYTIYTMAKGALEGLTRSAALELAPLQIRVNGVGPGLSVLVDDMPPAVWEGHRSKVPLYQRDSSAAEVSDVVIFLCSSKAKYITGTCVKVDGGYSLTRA

PTR1 [4] = molecular target: T2, PTR1; assay: biochemical; conditions: read-out: % Inhibition of protein binding to bead, PTR-1, L. major

CN(Cc1cnc2nc(N)nc(N)c2n1)c1ccc(C(=O)N[C@@H](CCC(=O)O)C(=O)O)cc1 [MTX, methotrexate]
inhibition at 100 µM (DHFR-TS [1]): 93%
competition for DHFR-TS (Figure 8a) (DHFR-TS [2]): competed for DHFR-TS
competition for PTR1 (Figure 8a) (PTR1 [3]): outcompeting for PTR1
inhibition at 100 µM (PTR1 [4]): 75%
